Experimental data from ChEMBL document CHEMBL1146809, “(+)-3-[2-(Benzo[b]thiophen-2-yl)-2-oxoethyl]-1-azabicyclo[2.2.2]octane as potent agonists for the alpha7 nicotinic acetylcholine receptor” (Bioorg Med Chem Lett, 2004).

Protein sequences, listed by entry. Tags and fused reporters are not part of them. Residues count along the entry.
UniProt Q05941, 23-502 limits assumed: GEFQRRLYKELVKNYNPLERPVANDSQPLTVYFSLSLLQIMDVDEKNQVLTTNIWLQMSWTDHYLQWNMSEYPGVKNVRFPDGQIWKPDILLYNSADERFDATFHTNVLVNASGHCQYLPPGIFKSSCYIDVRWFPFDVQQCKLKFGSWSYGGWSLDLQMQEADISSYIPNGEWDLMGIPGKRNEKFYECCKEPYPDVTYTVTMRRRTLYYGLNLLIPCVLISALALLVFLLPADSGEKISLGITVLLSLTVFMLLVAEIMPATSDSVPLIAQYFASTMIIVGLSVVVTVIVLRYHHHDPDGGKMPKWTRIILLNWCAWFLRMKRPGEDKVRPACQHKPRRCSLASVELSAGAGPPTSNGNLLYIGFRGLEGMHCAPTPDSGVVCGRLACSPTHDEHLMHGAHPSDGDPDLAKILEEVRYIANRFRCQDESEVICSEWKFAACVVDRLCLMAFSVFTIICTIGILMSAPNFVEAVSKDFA

Target: Neuronal acetylcholine receptor subunit alpha-7 (Rattus norvegicus, UniProt Q05941)
Test: Alpha 7 nicotinic acetylcholine receptor binding activity in PC12 cells
Type: cell-based
Details: pc-12

Q: How did the IC50 turn out when `O=C(OC1CN2CCC1CC2)c1ccccc1` (stereo unspecified) was run?
A: 2600 nM
